# Measurements: US20260256723A1, “THIOL-BASED COMPOUNDS AND COMPOSITIONS AND USES THEREOF” (CASE WESTERN RESERVE UNIVERSITY, priority 2022, published 2026)
# Test system: rats receiving infusion of fentanyl
# Assay: Fentanyl-induced constipation and anuria in metabolic cages
# Format: in vivo, Sprague-Dawley rat
# Conditions: fentanyl infusion 6 h; L-NAC at 60 and 90 min; samples over 5 h
structure (smiles),measurement,value
"CC(=O)N[C@@H](CS)C(=O)O [L-NAC, N-acetyl-L-cysteine]","Urine production (words, FIG. 13B)",normalized by L-NAC injections
